Biological target: D2L receptor (Rattus norvegicus, UniProt P61169)
Assay: biochemical

Amino acid sequences for entries named in this document (tags omitted). A change or cut given only in a name is not applied to a line headed by its entry.
UniProt P61169, whole entry: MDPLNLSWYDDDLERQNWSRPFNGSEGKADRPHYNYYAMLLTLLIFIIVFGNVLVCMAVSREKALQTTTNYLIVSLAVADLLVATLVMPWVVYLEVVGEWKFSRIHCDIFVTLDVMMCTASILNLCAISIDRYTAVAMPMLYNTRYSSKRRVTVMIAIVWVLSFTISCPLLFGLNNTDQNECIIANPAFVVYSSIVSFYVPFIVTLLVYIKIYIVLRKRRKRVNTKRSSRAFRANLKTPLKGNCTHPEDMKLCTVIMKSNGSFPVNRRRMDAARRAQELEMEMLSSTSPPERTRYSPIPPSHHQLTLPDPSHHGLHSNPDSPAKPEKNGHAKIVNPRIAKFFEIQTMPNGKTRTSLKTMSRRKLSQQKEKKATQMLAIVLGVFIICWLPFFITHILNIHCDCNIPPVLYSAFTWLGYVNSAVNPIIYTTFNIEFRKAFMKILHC

Ki: 0.059 µM
Compound: Oc1ccc2c(c1O)Cc1cccc3c1C2CNC3 (stereo not shown) [Compound 29, 8,9-Dihydroxy-2,3,7,11b-tetrahydro-1H-napth[1,2,3-de]isoquinoline]

Source: US20070155720A1 (published 2007)
